# Experimental data from PubChem BioAssay AID2797 (The Scripps Research Institute Molecular Screening Center, 2010).
# Amino acid sequences for entries named in this document (tags omitted).
# UniProt P37288, whole entry, looked up: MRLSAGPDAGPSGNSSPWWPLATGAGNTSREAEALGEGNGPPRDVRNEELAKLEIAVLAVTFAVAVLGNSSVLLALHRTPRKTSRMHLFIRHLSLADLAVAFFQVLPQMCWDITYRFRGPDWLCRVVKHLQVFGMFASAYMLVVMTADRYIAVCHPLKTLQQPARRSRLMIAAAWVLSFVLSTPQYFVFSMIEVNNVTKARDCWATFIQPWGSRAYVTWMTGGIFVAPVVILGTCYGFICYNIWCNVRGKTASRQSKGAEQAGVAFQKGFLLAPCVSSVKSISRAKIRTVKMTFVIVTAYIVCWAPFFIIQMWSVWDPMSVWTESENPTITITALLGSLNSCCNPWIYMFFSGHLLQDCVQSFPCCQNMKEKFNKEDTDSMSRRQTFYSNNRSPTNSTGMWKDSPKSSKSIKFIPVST
# The list shows a part of the results, in another mix than the full data. Active and inactive are the calls of the source.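 Rule for the calls: active = activation above the mean activation of all tested compounds plus 3 SD, per screening run (cut at about 20% in these data); inactive = the rest.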
# Target: Vasopressin V1a receptor (Homo sapiens) (UniProt P37288)
# Experiment: agonists of human V1a receptor, primary screen, counter-screen for OXTR agonist project, fluorescence, CHO-V1R cells (AID 2797);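 note: signal is peak over basal fluorescence ratio across a 100 second FLIPR read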
# Details: Fluo-8 calcium fluorescence, agonist mode, at 3 µM, stronger effect = higher value, 0% DMSO, 100% 3 nM vasopressin
row,Structure (SMILES),activation
1,COc1ccc(N/C(=N/P(=O)(N2CCOCC2)N2CCOCC2)N2CCOCC2)cc1,inactive: 0.87%
2,O=C(OC1CN2CCC1CC2)c1ccc(Cl)cc1 (stereo not drawn),inactive: -0.62%
3,CS(=O)(=O)c1ccc(Cl)c(NC(=O)COC(=O)C(O)(c2ccccc2)c2ccccc2)c1,inactive: 15.8%
4,COc1cc(C(=O)NCC2(N3CCOCC3)CCCCC2)cc(Cl)c1OC(C)C,inactive: -1.27%
5,O=[As](O)(O)c1cccnc1,inactive: -0.22%
6,O=[As](O)(c1cccc(O)c1)c1cccc(O)c1,inactive: 1.4%
7,Cc1cccc(OCC(=O)OC2CN3CCC2CC3)c1 (stereo not drawn),inactive: 0.64%
8,Cc1ccc(NCCc2c([N+](=O)[O-])cc([N+](=O)[O-])cc2[N+](=O)[O-])cc1,inactive: -1.56%
9,Nc1cccc2c([As](=O)(O)O)cccc12,inactive: 14.7%
10,CCCOP(=S)(Nc1nc(N)cc(=O)[nH]1)OCCC,inactive: -0.36%
11,CCOP(=O)(Nc1cccc2ccccc12)OCC,inactive: 1.02%
12,COc1cc(C2NCCC3(OCCO3)C2(C)C)cc(OC)c1OC (stereo not drawn),inactive: 0.2%
13,O=P(Nc1nccs1)(c1ccccc1)c1nc2ccccc2s1 (stereo not drawn),inactive: 0.94%
14,O=P(Nc1nccs1)(Oc1ccccc1)Oc1ccccc1,inactive: 0.77%
15,CCOP1(=S)c2c(C)nn(CCC#N)c2N=C(c2ccccc2F)N1C (stereo not drawn),inactive: -0.68%
16,CS(=O)(=O)c1cc([N+](=O)[O-])c2no[n+]([O-])c2c1,inactive: 0.85%
17,Nc1ccccc1[As](=O)(O)c1ccccc1,inactive: -0.44%
18,O=C(O)COc1ccc([As](=O)(O)O)cc1[N+](=O)[O-],inactive: 0.47%
19,NC(=O)Nc1ccc([As](=O)(O)O)cc1,inactive: -0.47%
20,CN(C(=O)Cc1ccccc1)[C@@H]1CC[C@]2(CCCO2)C[C@H]1N1CCCC1,inactive: 0.66%
21,CCOP1(=S)c2c(C)nn(CCC#N)c2N=C(c2ccc(F)cc2)N1C (stereo not drawn),inactive: -1.25%
22,N#CCCN(C(=O)COC(=O)C(O)(c1ccccc1)c1ccccc1)c1ccc(F)cc1,inactive: 2.66%
23,CN(C(=O)Cc1ccc(Cl)c(Cl)c1)[C@H]1CC[C@@]2(CCCO2)C[C@@H]1N1CCCC1,inactive: 1.16%
24,CN(C)C(=O)c1cc([N+](=O)[O-])cc2c1-c1c(cc([N+](=O)[O-])cc1[N+](=O)[O-])C2=O,inactive: -1.87%

row,Structure (SMILES),activation
1,O=[N+]([O-])c1ccc2c(c1)nnn2O,inactive: 0.07%
2,CC1CCC(C(C)C)C(OP(=O)(Nc2ccccn2)c2ccccc2)C1 (stereo not drawn),inactive: 1.22%
3,Cc1ccc(C(=O)OC2CN3CCC2CC3)cc1 (stereo not drawn),inactive: -0.15%
4,Cc1nn(-c2ccccc2)c2c1P(=O)(N1CCOCC1)N(C)C(c1ccccc1)=N2 (stereo not drawn),inactive: -0.43%
5,CN(C)C1(CNC(=O)c2ccc(S(C)(=O)=O)cc2)CCCCC1,inactive: -0.03%
6,O=C(/C=C/c1ccccc1)OC1CN2CCC1CC2 (stereo not drawn),inactive: -0.93%
7,O=P1(Nc2ncccn2)COc2ccccc2OC1,inactive: 0.45%
8,Nc1cccc([As](=O)(O)c2ccccc2)c1,inactive: 1.67%
9,O=P1(Nc2ccc(Br)cn2)COc2ccccc2OC1,inactive: 1.24%
10,NS(=O)(=O)c1cccc(NC(=O)COC(=O)C(O)(c2ccccc2)c2ccccc2)c1,inactive: 0.56%
11,Cc1ccc(OCC(=O)OC2CN3CCC2CC3)cc1 (stereo not drawn),inactive: 2.19%
12,O=[As](O)(c1cccs1)c1cccs1,inactive: 0.8%
13,CCOP(=O)(NC(=NC(C)c1ccccc1)NC(C)c1ccccc1)OCC (stereo not drawn),inactive: -0.04%
14,O=P1(Nc2ccccn2)COc2ccccc2OC1,inactive: -0.05%
15,CCC1=CC2Cc3nc4ccc(Cl)cc4c(N)c3C(C1)C2 (stereo not drawn),inactive: 3.21%
16,CN(CCCl)Cc1cc(Cl)c(NC2=NCCN2)c(Cl)c1,inactive: -0.06%
17,CCOP(=O)(Nc1ccc(C)cn1)OCC,inactive: 0%
18,CC(C)(C)C(=O)NC(Sc1ncccn1)C(Cl)(Cl)Cl (stereo not drawn),inactive: -0.75%
19,Clc1n[nH]nc1-c1nn[nH][15n]1,inactive: 0.48%
20,COc1ccccc1CNC(=O)COC(=O)C(O)(c1ccccc1)c1ccccc1,inactive: 0.13%
21,CC(C)/C=N\N=C(\N)N[N+](=O)[O-],inactive: 0.68%
22,CN(C(=O)Cc1ccc(Cl)c(Cl)c1)[C@@H]1CCCC[C@H]1N1CCCC1,inactive: -0.05%
23,CC1(CBr)Cn2c(nc3ccccc3c2=O)S1 (stereo not drawn),inactive: 0.41%
24,O=[As](O)(c1ccccc1Br)c1ccccc1Br,inactive: 0.25%
